Earlier results on 1 substance are cited in US6124256A, “Method for the prevention of a patient's fibroproliferative vasculopathy” (priority 1998, dated 2000).

Amino acid sequences for entries named in this document (tags omitted). A change or cut given only in a name is not applied to a line headed by its entry.
UniProt P30872: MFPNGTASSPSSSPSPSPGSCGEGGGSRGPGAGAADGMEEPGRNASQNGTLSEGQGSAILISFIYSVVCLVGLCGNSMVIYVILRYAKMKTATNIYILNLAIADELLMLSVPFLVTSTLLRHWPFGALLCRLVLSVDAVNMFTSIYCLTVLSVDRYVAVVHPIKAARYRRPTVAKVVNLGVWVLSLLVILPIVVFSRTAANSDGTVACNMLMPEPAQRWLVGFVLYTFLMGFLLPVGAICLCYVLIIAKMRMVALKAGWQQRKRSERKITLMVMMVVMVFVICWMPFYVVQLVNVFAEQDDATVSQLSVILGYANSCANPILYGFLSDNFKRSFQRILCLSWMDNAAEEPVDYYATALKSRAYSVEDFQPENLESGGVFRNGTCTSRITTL
UniProt P31391: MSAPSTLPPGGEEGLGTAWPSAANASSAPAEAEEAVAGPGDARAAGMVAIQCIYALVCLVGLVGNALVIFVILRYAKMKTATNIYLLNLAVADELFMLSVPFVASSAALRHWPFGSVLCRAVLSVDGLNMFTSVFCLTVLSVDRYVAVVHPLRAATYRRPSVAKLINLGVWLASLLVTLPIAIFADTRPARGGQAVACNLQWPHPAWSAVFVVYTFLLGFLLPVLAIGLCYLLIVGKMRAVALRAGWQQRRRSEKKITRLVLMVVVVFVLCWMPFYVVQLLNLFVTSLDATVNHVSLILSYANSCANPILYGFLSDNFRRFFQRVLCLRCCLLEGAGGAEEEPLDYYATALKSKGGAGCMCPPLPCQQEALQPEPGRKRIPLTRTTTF
UniProt P35346: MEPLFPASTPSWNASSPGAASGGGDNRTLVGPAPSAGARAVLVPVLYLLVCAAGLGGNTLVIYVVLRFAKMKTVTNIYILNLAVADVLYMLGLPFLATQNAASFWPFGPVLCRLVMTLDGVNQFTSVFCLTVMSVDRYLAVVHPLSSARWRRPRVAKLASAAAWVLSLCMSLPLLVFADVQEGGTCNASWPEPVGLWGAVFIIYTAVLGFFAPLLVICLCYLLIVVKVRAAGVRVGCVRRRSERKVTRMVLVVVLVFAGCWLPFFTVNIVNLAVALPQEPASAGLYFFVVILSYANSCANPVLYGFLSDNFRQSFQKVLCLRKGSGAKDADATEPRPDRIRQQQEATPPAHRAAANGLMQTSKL
UniProt P30874: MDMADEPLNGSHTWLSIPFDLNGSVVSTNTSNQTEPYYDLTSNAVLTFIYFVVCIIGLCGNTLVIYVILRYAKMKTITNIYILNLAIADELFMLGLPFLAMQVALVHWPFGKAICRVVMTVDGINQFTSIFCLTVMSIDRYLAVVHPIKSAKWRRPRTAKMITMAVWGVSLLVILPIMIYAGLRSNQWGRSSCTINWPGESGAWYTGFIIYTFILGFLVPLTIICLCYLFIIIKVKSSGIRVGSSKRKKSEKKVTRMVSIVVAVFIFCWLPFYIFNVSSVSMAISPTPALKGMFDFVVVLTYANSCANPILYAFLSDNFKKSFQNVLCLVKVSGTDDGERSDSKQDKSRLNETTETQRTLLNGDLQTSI
UniProt P32745: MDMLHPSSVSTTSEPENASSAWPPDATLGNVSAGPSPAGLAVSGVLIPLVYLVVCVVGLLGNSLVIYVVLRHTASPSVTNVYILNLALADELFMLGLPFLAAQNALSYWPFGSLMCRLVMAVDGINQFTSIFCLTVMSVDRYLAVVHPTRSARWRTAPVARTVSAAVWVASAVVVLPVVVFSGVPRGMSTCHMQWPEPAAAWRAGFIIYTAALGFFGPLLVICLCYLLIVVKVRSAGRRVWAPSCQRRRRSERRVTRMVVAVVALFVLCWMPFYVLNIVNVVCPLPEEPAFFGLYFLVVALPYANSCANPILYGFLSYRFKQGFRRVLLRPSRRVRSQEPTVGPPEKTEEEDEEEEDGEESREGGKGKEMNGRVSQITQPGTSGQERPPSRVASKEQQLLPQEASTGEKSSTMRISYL

One data set has as its target T1, hSSTR1 (Homo sapiens, UniProt P30872).
T1 construct: expressed in transfected cells; host or cells: CHO
The conditions noted are these: human receptor in transfected CHO cell lines; read-out: binding affinities Ki hSSTR1.

A further data set has as its target T2, hSSTR4 (Homo sapiens, UniProt P31391).
T2 construct: expressed in transfected cells; host or cells: CHO
The settings on record: human receptor in transfected CHO cell lines; read-out: binding affinities Ki hSSTR4.

A further data set has as its target T3, hSTR5 (Homo sapiens, UniProt P35346).
T3 construct: expressed in transfected cells; host or cells: CHO
The settings on record: human receptor in transfected CHO cell lines; read-out: binding affinities Ki hSTR5.

Another data set deals with SSTR2 (Homo sapiens, UniProt P30874). The arrangement: expressed in transfected cells; host or cells: CHO. The conditions noted are these: human receptor in transfected CHO cell lines; read-out: binding affinities Ki hSSTR2.
Another data set has as its target hSSTR3 (Homo sapiens, UniProt P32745). More on the design: expressed in transfected cells; host or cells: CHO. The conditions noted are these: human receptor in transfected CHO cell lines; read-out: binding affinities Ki hSSTR3.

For the substance “somatostatin SRIF-28 [Somatostatin (SRIF-28)]”, the Ki on hSSTR1 is 2.2 nM; on hSSTR4, 1.1 nM; at hSTR5 it was 0.07 nM; on SSTR2, 4.1 nM; on hSSTR3 it was 6.1 nM.
